Patent US8846929B2, “Substituted-quinoxaline-type piperidine compounds and the uses thereof” (priority 2007, dated 2014)

Tests used:
[1] = target: human opioid receptor-like (ORL-1) (Homo sapiens (Human), UniProt P41146); experiment: In vitro ORL-1 receptor [35S]GTPγS functional assay; type: biochemical; conditions: mean ± SEM; for EC50: read-out: GTPγS ORL-1 EC50
kappa opioid receptor = kappa opioid receptor (Homo sapiens (Human), UniProt P41145); experiment: In vitro kappa-opioid receptor [35S]GTPγS functional assay; type: biochemical; conditions: mean ± SEM; for EC50: read-out: GTPγS Opioid Receptor Kappa EC50

| Compound | EC50 [1] [nM] | GTPγS Opioid Receptor Kappa Emax (kappa opioid receptor) [%] | EC50 (kappa opioid receptor) [nM] | GTPγS ORL-1 Emax [1] [%] |
| --- | --- | --- | --- | --- |
| NC(=O)CNc1nc2ccccc2n([C@@H]2C[C@H]3CC[C@@H](C2)N3C2CCCCCCC2)c1=O | 3240 |  |  |  |
| O=C(O)[C@H](CO)Nc1nc2ccccc2n(C2CCN(C3CCCCCCC3)CC2)c1=O | 113 | 14 ± 1 | 2540 | 48.7 ± 1.9 |
| O=C(O)c1nc2ccccc2n([C@H]2C[C@H]3CCCC[C@@H](C2)N3C2/C=C\CCCCC2)c1=O (some centres unmarked) |  |  |  | 89.7 ± 5.2 |
| CC(=O)NC1CCN(c2nc3ccccc3n(C3CCN(C4CCCCCCC4)CC3)c2=O)CC1 | 950 | 6.83 ± 0.6 | 1900 | 73.7 ± 2.3 |
| CCOC(=O)CNc1nc2ccccc2n(C2CCN(C3CCCCCCC3)CC2)c1=O |  | 12 ± 1 | 5240 | 85.3 ± 5.0 |
| O=C(NCC(O)CO)c1nc2ccccc2n(C2CCN(C3CCCCCCC3)CC2)c1=O (centres unmarked) |  |  |  | 88.3 ± 2.4 |
| O=C(NOCc1ccccc1)c1nc2ccccc2n(C2CCN(C3CCCCCCC3)CC2)c1=O |  |  |  | 105.3 ± 1.7 |
| O=C(NCc1nn[nH]n1)c1nc2ccccc2n([C@H]2C[C@H]3CC[C@@H](C2)N3C2CCCCCCC2)c1=O | 647 |  |  |  |
| NC1CCN(c2nc3ccccc3n(C3CCN(C4CCCCCCC4)CC3)c2=O)CC1 | 440 | 31 ± 1.2 | 690 | 64 ± 3.6 |
| CNC(=O)c1nc2ccccc2n(C2CCN(C3CCCCCCC3)CC2)c1=O |  |  |  | 102.3 ± 5.7 |
| COC(=O)C1CCN(c2nc3ccccc3n(C3CCN(C4CCCCCCC4)CC3)c2=O)CC1 |  |  |  | 61 ± 2 |
| CS(=O)(=O)NC1CCN(c2nc3ccccc3n(C3CCN(C4CCCCCCC4)CC3)c2=O)CC1 |  | 9.67 ± 1.5 | 3970 | 92.7 ± 3.5 |
| CC(=O)N[C@H]1CCN(c2nc3ccccc3n(C3CCN(C4CCCCCCC4)CC3)c2=O)C1 |  | 12 ± 0.6 | 5040 | 106.5 ± 3.8 |
| O=c1c(N2CCC(O)CC2)nc2ccccc2n1C1CCN(C2CCCCCCC2)CC1 | 957 | 9 ± 0.6 | 2820 | 99 ± 4.6 |
| CC(=O)N[C@@H]1CCN(c2nc3ccccc3n(C3CCN(C4CCCCCCC4)CC3)c2=O)C1 |  | 29 ± 5.1 | 1500 | 97.7 ± 4.8 |
| O=C(O)c1nc2ccccc2n([C@H]2C[C@H]3CC[C@@H](C2)N3C2CCCCCCCCCC2)c1=O |  | 11.7 ± 2.3 |  | 101.3 ± 5.7 |
| O=C(O)c1nc2ccccc2n([C@H]2C[C@H]3CCC[C@@H](C2)N3C2/C=C\CCCCC2)c1=O (some centres unmarked) | 32 |  | > 20000 |  |
| O=C(O)CN(CCNC(=O)c1nc2ccccc2n([C@H]2C[C@H]3CC[C@@H](C2)N3C23CC4CC(CC(C4)C2)C3)c1=O)CC(=O)O |  |  |  | 15 ± 1.2 |
| NC(=O)C1CCCN(c2nc3ccccc3n(C3CCN(C4CCCCCCC4)CC3)c2=O)C1 (centres unmarked) |  |  |  | 88.7 ± 6.3 |
| CCOC(=O)C1CN(CCNc2nc3ccccc3n([C@H]3C[C@H]4CC[C@@H](C3)N4C3CCCCCCC3)c2=O)C[C@H]1C(=O)OCC (some centres unmarked) | 321 |  | 552 |  |
| NC(=O)CNc1nc2ccccc2n(C2CCN(C3CCCCCCC3)CC2)c1=O |  |  |  | 76 ± 0.6 |
| O=c1c(N2CCc3ccccc32)nc2ccccc2n1C1CCN(C2CCCCCCC2)CC1 | 71.2 | 7 ± 1.2 | 8760 | 119.7 ± 2.7 |
| CC1(N2[C@@H]3CCC[C@H]2C[C@@H](n2c(=O)c(C(=O)O)nc4ccccc42)C3)CCCCCCC1 |  |  |  | 117 ± 5 |

| Compound | EC50 [1] [nM] | GTPγS Opioid Receptor Kappa Emax (kappa opioid receptor) [%] | EC50 (kappa opioid receptor) [nM] | GTPγS ORL-1 Emax [1] [%] |
| --- | --- | --- | --- | --- |
| CC(C)(Nc1nc2ccccc2n([C@H]2C[C@H]3CC[C@@H](C2)N3C2CCCCCCC2)c1=O)C(=O)O | 517 | 7.7 ± 1.2 | 5960 | 31.3 ± 1.8 |
| N[C@H]1CCN(c2nc3ccccc3n(C3CCN(C4CCCCCCC4)CC3)c2=O)C1 | 88 | 12.7 ± 4.1 | 285 | 78 ± 10 |
| O=C(NO)c1nc2ccccc2n(C2CCN(C3CCCCCCC3)CC2)c1=O | 92 |  |  | 103.3 ± 5.2 |
| CN(CC(O)CO)c1nc2ccccc2n(C2CCN(C3CCCCCCC3)CC2)c1=O (centres unmarked) |  |  |  | 107.7 ± 3.3 |
| CC(=O)N1CCC(Nc2nc3ccccc3n(C3CCN(C4CCCCCCC4)CC3)c2=O)CC1 |  | 9.33 ± 0.7 | 5400 | 76.3 ± 5.4 |
| NC(=O)c1nc2ccccc2n(C2CCN(C3CCCCCCC3)CC2)c1=O | 97.8 |  |  | 128 ± 4.7 |
| CONC(=O)c1nc2ccccc2n(C2CCN(C3CCCCCCC3)CC2)c1=O |  | 11.3 ± 1.5 | 1980 | 79 ± 2.5 |
| O=c1c(NCC(O)CO)nc2ccccc2n1C1CCN(C2CCCCCCC2)CC1 (centres unmarked) |  |  |  | 79 ± 2.5 |
| O=C(O)c1ccc(CNC(=O)c2nc3ccccc3n([C@H]3C[C@H]4CC[C@@H](C3)N4C3CCCCCCC3)c2=O)cc1 |  |  |  | 61.0 ± 0.6 |
| CSCCC(NC(=O)c1nc2ccccc2n([C@H]2C[C@H]3CC[C@@H](C2)N3C2CCCCCCC2)c1=O)C(=O)O (some centres unmarked) |  |  | 25000 |  |
| COC(=O)[C@@H]1CCCN1c1nc2ccccc2n(C2CCN(C3CCCCCCC3)CC2)c1=O |  |  |  | 92.3 ± 0.9 |
| O=c1c(NC[C@@H](O)CO)nc2ccccc2n1C1CCN(C2CCCCCCC2)CC1 |  |  |  | 100.3 ± 3.3 |
| O=C1CCN(c2nc3ccccc3n(C3CCN(C4CCCCCCC4)CC3)c2=O)N1 |  |  |  | 62.0 ± 1.5 |
| O=C(O)c1ccc(CNC(=O)c2nc3ccccc3n([C@H]3C[C@H]4CC[C@@H](C3)N4C3CCCCCCC3)c2=O)nc1 |  |  |  | 44 ± 1.7 |
| NC(=O)[C@H](CO)Nc1nc2ccccc2n([C@@H]2C[C@H]3CC[C@@H](C2)N3C2CCCCCCC2)c1=O | 2430 |  |  | 86.3 ± 5.2 |
| O=C(O)c1nc2ccccc2n([C@H]2C[C@H]3CC[C@@H](C2)N3C23CCC(CC2)C3)c1=O | 1860 |  |  |  |
| NC(=O)CCNc1nc2ccccc2n(C2CCN(C3CCCCCCC3)CC2)c1=O |  |  |  | 98.7 ± 4.4 |
| CC(C)(C)OC(=O)NC1CCN(c2nc3ccccc3n(C3CCN(C4CCCCCCC4)CC3)c2=O)CC1 |  |  |  | 71.7 ± 1.2 |
| O=C(O)C1CCCN1C(=O)c1nc2ccccc2n([C@H]2C[C@H]3CC[C@@H](C2)N3C2CCCCCCC2)c1=O (some centres unmarked) |  |  |  | 82.3 ± 3.7 |
| O=C1CN(c2nc3ccccc3n(C3CCN(C4CCCCCCC4)CC3)c2=O)CCN1 |  |  |  | 69.0 ± 2.7 |
| O=C(O)c1cc(CNc2nc3ccccc3n([C@H]3C[C@H]4CC[C@@H](C3)N4C3CCCCCCC3)c2=O)ccc1O | 75.4 |  |  |  |
| CN(CC(=O)O)C(=O)c1nc2ccccc2n([C@H]2C[C@H]3CC[C@@H](C2)N3C2CCCCCCC2)c1=O |  |  |  | 54.0 ± 2.3 |
| O=c1c(NC[C@@H](O)CO)nc2ccccc2n1C1CCN(C23CC4CC(CC(C4)C2)C3)CC1 |  |  |  | 74.3 ± 3.4 |

| Compound | EC50 [1] [nM] | GTPγS Opioid Receptor Kappa Emax (kappa opioid receptor) [%] | EC50 (kappa opioid receptor) [nM] | GTPγS ORL-1 Emax [1] [%] |
| --- | --- | --- | --- | --- |
| CONC(=O)c1nc2ccccc2n([C@H]2C[C@H]3CC[C@@H](C2)N3C2CCCCCCC2)c1=O |  |  |  | 89.7 ± 5.4 |
| CC(NC(=O)c1nc2ccccc2n([C@H]2C[C@H]3CC[C@@H](C2)N3C2CCCCCCC2)c1=O)C(=O)O (some centres unmarked) |  |  | 11800 |  |
| O=c1c(N2CC[C@H](O)C2)nc2ccccc2n1C1CCN(C2CCCCCCC2)CC1 |  |  |  | 101 ± 5.9 |
| CS(=O)(=O)N[C@@H]1CCN(c2nc3ccccc3n(C3CCN(C4CCCCCCC4)CC3)c2=O)C1 |  |  |  | 109.3 ± 5.4 |
| CCOC(=O)CN(C)c1nc2ccccc2n(C2CCN(C3CCCCCCC3)CC2)c1=O |  |  |  | 73.3 ± 2.3 |
| O=C(O)c1nc2ccccc2n([C@H]2C[C@H]3CC[C@@H](C2)N3C23CC4CC(CC2C4)C3)c1=O |  |  |  | 80 ± 4.8 |
| NC(=O)[C@H](CO)Nc1nc2ccccc2n(C2CCN(C3CCCCCCC3)CC2)c1=O |  |  |  | 71.3 ± 3.7 |
| O=c1c(NC[C@H](O)CO)nc2ccccc2n1C1CCN(C2CCCCCCC2)CC1 |  |  |  | 106.7 ± 3.7 |
| NC(=O)[C@@H]1CCCN1c1nc2ccccc2n(C2CCN(C3CCCCCCC3)CC2)c1=O |  |  |  | 86.3 ± 2.4 |
| O=C(O)c1nc2ccccc2n(C2CC3CCCC(C2)N3C23CC4CC(CC2C4)C3)c1=O (centres unmarked) [compound 263, 4-(9-(hexahydro-2,5-methano-pentalen-3a-yl)-9-aza-bicyclo[3.3.1]non-3-yl)-3-oxo-3,4-dihydro-quinoxaline-2-carboxylic acid] |  |  |  | 69 ± 2.9 |
| CC(C)(C)OC(=O)N1CCN(c2nc3ccccc3n(C3CCN(C4CCCCCCC4)CC3)c2=O)CC1 |  |  |  | 55.7 ± 4.2 |
| N=C(N)NCCNc1nc2ccccc2n(C2CCN(C3CCCCCCC3)CC2)c1=O |  |  |  | 85.3 ± 2.7 |
| O=C(Nc1ccc(=O)[nH]c1)c1nc2ccccc2n(C2CCN(C3CCCCCCC3)CC2)c1=O |  |  |  | 102 ± 3.2 |
| O=C(O)c1nc2ccccc2n([C@H]2C[C@H]3CCC[C@@H](C2)N3C2C3CC4CC(C3)CC2C4)c1=O (some centres unmarked) |  |  |  | 67.0 ± 5.8 |
| CS(=O)(=O)NCCNc1nc2ccccc2n(C2CCN(C3CCCCCCC3)CC2)c1=O | 900 |  |  | 45.7 ± 1.8 |
| O=C(O)c1cccc(CNc2nc3ccccc3n([C@H]3C[C@H]4CC[C@@H](C3)N4C3CCCCCCC3)c2=O)c1 |  |  |  | 42.3 ± 2.9 |
| O=C(O)c1nc2ccccc2n([C@H]2C[C@H]3CCC[C@@H](C2)N3CCC2CCCCC2)c1=O |  |  |  | 20.7 ± 3.8 |
| NCC(O)CNc1nc2ccccc2n(C2CCN(C3CCCCCCC3)CC2)c1=O (centres unmarked) |  |  |  | 96 ± 2.9 |
| CN(C)c1nc2ccccc2n(C2CCN(C3CCCCCCC3)CC2)c1=O |  |  |  | 47.3 ± 2.0 |
| CC(C)CC(C)N1[C@@H]2CCC[C@H]1C[C@@H](n1c(=O)c(C(=O)O)nc3ccccc31)C2 (some centres unmarked) |  |  | 3270 |  |
| COC(=O)[C@@H]1C[C@@H](O)CN1c1nc2ccccc2n(C2CCN(C3CCCCCCC3)CC2)c1=O |  |  |  | 80.3 ± 1.2 |
